B1: Optineurin (Homo sapiens), Q96CV9 (parent)
chain: MSHQPLSCLTEKEDSPSESTGNGPPHLAHPNLDTFTPEELLQQMKELLTENHQLKEAMKLNNQAMKGRFEELSAWTEKQKEERQFFEIQSKEAKERLMALSHENEKLKEELGKLKGKSERSSEDPTDDSRLPRAEAEQEKDQLRTQVVRLQAEKADLLGIVSELQLKLNSSGSSEDSFVEIRMAEGEAEGSVKEIKHSPGPTRTVSTGTALSKYRSRSADGAKNYFEHEELTVSQLLLCLREGNQKVERLEVALKEAKERVSDFEKKTSNRSEIETQTEGSTEKENDEEKGPETVGSEVEALNLQVTSLFKELQEAHTKLSEAELMKKRLQEKCQALERKNSAIPSELNEKQELVYTNKKLELQVESMLSEIKMEQAKTEDEKSKLTVLQMTHNKLLQEHNNALKTIEELTRKESEKVDRAVLKELSEKLELAEKALASKQLQMDEMKQTIAKQEEDLETMTILRAQMEVYCSDFHAERAAREKIHEEKEQLALQLAVLLKENDAFEDGGRQSLMEMQSRHGARTSDSDQQAYLVQRGAEDRDWRQQRNIPIHSCPKCGEVLPDIDTLQIHVMDCII

Variants of: B1
Conditions: with rab8a_human RAB8A

Row | Variant | effect of a mutation on the interaction
1 | E50K | disrupting interaction
